BindingDB's records for doi:10.1016/j.bmcl.2012.07.045 (Rhône-Poulenc Rorer, 2012)

Molecular target: Tyrosine-protein kinase SYK (Homo sapiens) (UniProt P43405)
Assay: Inhibition of human recombinant full-length Syk using poly-GT as substrate after 40 mins by radioactive filtration assay

IC50: 0.6 nM
Structure (SMILES): FC(F)(F)c1ccnc(Nc2cccc(-c3cccc(N4CCNCC4)c3)n2)c1
